Experimental data from patent publication US20260021193A1 (IMMUNOME, published 2026).
Where two headings read alike, the source gives them in different places.

Columns and labels:
Hu/Cy/Rh ROR1 - His = target: T1, Hu/Cy/Rh ROR1 - His (Human/Cyno/Rhesus, UniProt Q01973, in part); test: SPR, purified Hu/Cy/Rh ROR1-His
T1 construct: Purified His-tagged ROR1 protein used in SPR; also called Human/Cyno/Rhesus ROR-1; not shown: His tag

[1] = target: T2, human ROR-1 endogenously expressed on JeKo-1 and MDA-MB-468 cells (human, UniProt Q01973); test: flow cytometry competition (cellular binning) on MDA-MB-468 cells: cells coated with titrated ATX-P-890, then a saturating dose of the labeled competitor 4A5-PE, whose signal is plotted in % Top MFI
T2 construct: whole, on cells; also called ROR-1 receptor
Method: (§1) Next, the anti-ROR-1 antibodies were fluorescently labeled with a secondary antibody.
(§2) In Step 2, a fluorescently labeled secondary antibody recognizing the novel antibodies was incubated with the samples.

[2] = target: T2, human ROR-1 endogenously expressed on …; test: flow cytometry (cellular binning): titration of the antibody on MDA-MB-468 cells, fluorescently labeled secondary antibody, % Top MFI
Method: as §1, §2

[3] = target: T2, human ROR-1 endogenously expressed on …; test: cell-based or functional assay
[4] = target: T2, human ROR-1 endogenously expressed on …; test: flow cytometry (cellular binning): titration of the antibody on MDA-MB-468 cells, fluorescently labeled secondary antibody, % Top MFI; remark: listed apart in the source
Method: as §1, §2

Kd (Hu/Cy/Rh ROR1 - His): 8.4 nM
koff (Hu/Cy/Rh ROR1 - His): 0.00314 s⁻¹
kon (Hu/Cy/Rh ROR1 - His): 392000 M⁻¹ s⁻¹
IC50 (read off the curve) [1]: ~1 nM
EC50 (read off the curve) [2]: ~0.8 nM
JeKo-1 (%) cellular internalization [3]: 70%
MDA-MB-468(%) cellular internalization [3]: 80%
EC50 (read off the curve) [4]: ~0.9 nM
B1: ATX-P-890 (antibody, V domains shown)
VH: QVQLVQSGAEVKKPGASVKVSCKASGYTFTGYYMHWVRQAPGQGLEWMGWINPNSGGTNYAQKFQGRVTMTRDTSISTAYMELSRLRSDDTAVYYCVRDQVQLERFDSWGQGTLVTVSS
VL: [about 100 residues not shown]
